cAMP production data for one substance are collected here from US8883739B2, “Osteocalcin as a treatment for male reproductive disorders” (The Trustees of Columbia University in the City of New York, priority 2010, dated 2014).

This experiment has as its system TM3 Leydig cells. Kind of experiment: cAMP quantification in Leydig cells. As to conditions: 30 minutes, 0.5 mM IBMX. In kind it is cell-based, mouse. How it is done:
For cAMP measurements, TM3 Leydig cells were plated in 6 cm dishes (10^7 cells per dish) a day before experiment. Cells were serum starved for 16 hours (in the presence of 0.1% BSA) then pre-incubated in the presence of 0.5 mM IBMX for 30 minutes and stimulated with the indicated concentration of osteocalcin (also in the presence of 0.5 mM IBMX) for 30 minutes. cAMP concentration was measured with the Parameter cAMP kit (R&D Systems, KGE002).

Consider “hCG: human chorionic gonadotropin, positive control; binds to the LH receptor on Leydig cells [reference compound]”, for which the cAMP production entry was “induced”.
